Experimental data as given in publication PMC5639367, “Structure‐Guided Design of Peptides as Tools to Probe the Protein–Protein Interaction between Cullin‐2 and Elongin BC Substrate Adaptor in Cullin RING E3 Ubiquitin Ligases” (Chemmedchem, 2017).

Protein sequences, listed by entry. Tags and fused reporters are not part of them.
UniProt P40337, whole entry, chain 1 of 3: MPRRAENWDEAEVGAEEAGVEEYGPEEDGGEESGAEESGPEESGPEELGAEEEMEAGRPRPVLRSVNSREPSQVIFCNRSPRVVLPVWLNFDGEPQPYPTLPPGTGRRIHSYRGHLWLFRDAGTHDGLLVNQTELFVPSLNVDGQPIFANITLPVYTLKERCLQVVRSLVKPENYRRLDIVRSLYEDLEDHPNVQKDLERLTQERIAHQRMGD
UniProt Q13617, whole entry, looked up, tested part not stated: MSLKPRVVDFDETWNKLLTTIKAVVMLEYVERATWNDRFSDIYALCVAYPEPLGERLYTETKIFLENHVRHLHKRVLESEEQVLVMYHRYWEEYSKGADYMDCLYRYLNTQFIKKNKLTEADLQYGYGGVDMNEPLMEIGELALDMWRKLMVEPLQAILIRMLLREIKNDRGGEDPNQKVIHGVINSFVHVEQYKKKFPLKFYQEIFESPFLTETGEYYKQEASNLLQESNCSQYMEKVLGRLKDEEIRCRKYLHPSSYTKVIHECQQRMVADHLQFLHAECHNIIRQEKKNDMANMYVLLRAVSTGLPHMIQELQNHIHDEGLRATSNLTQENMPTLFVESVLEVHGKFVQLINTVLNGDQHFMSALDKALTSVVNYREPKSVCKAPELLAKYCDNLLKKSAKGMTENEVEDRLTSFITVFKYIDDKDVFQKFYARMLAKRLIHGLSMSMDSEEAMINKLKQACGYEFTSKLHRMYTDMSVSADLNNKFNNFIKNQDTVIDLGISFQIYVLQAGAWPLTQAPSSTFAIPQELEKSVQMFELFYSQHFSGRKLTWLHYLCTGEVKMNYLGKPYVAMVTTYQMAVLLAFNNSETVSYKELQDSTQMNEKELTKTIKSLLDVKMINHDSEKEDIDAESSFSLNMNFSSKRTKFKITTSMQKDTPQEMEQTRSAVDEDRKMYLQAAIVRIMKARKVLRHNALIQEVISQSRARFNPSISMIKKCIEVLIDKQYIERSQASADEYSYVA

Target: VBC ternary complex (pVHL, Elongin B, Elongin C) (UniProt P40337)
Test: BLI; biotinylated VBC (25 ug/mL) immobilised on Super Streptavidin biosensors, peptides titrated; Octet RED384; 25 °C; 20 mM HEPES pH 7.6, 100 mM NaCl, 1 mM DTT, 0.02 % Tween-20; reference tips subtracted; 1:1 model

- Kd: 18 mM
Substance: peptide B (8-mer Cul2 peptide, Leu3 replaced by tryptophan) (from UniProt Q13617 1-8)
